By UniProt entry, the sequences of proteins in these tests, tags left out. Residues count along the entry.
UniProt Q9NYK1, 27-1049 limits assumed: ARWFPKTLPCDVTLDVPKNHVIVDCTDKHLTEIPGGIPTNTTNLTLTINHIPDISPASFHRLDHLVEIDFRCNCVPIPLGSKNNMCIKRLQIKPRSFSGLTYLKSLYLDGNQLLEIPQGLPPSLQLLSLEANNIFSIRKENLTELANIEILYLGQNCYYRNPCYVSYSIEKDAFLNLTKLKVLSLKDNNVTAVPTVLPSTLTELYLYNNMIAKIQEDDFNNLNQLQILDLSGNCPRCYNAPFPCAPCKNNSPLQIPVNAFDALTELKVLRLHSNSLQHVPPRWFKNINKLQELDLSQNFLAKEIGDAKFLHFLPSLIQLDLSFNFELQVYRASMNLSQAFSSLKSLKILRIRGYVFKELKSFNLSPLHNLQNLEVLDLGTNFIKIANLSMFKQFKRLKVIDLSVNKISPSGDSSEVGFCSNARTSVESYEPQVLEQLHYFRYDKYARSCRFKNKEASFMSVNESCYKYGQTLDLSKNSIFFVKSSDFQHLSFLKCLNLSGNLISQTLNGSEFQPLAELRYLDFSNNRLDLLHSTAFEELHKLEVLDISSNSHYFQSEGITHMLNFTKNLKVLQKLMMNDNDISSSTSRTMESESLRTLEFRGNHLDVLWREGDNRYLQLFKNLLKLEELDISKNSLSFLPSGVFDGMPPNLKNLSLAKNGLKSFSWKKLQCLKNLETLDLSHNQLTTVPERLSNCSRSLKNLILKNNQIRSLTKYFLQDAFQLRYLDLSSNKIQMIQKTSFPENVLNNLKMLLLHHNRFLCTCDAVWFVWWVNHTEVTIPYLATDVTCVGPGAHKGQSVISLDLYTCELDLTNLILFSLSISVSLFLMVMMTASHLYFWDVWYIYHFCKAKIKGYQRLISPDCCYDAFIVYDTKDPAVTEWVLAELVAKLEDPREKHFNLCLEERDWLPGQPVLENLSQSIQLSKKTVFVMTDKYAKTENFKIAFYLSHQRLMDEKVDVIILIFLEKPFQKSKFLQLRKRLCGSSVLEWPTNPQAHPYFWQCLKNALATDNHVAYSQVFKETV

According to patent US10947213B1 (Merck Patent GmbH, priority 2015, dated 2021):

Biological target: TLR7/NFKb HEK cells (Homo sapiens, UniProt Q9NYK1)
Experiment: HEK Cell Assay (TLR7/NFKb reporter, Steady-Glo luciferase readout)
Conditions: read-out: Potency, 30 min compound preincubation, then R*48 agonist for 5 hours
Procedure: Example 142: HEK Cell Assay
Into 384 CulturePlates (Corning 3707) was placed 5000 c/w of TLR7/NFKb HEK cells in 30 uL DMEM without Phenil red (gibco #31053) and 10% i.a. FCS and 2 mM L-ZGLutamin. The cells were incubated for 24 h at 37° C., 10% carbon dioxide and 90% relative humidity. 3 uL of controls, standards, and compounds were dispensed into wells, incubated for 30 min then 3 uL of R*48 agonist in 20 mM Hepes was added. After incubation for 5 hours, they were allowed to stand at room temperature for 15 min. To this was added 10 uL of Steady-Glo substrate reagent and shake assay plate for 5 min at 1500 rpm. The assay plate was allowed to sit for 30 min at room temperature and then the plate was read on EnVision.

Compound: C[C@H]1C[C@H](C(=O)NCCN2CCN(C)CC2)CN(c2ccc(C#N)c3nccnc23)C1 (relative stereo)
- IC50: < 1 µM
